Measurements published in patent US9212214B2, “Methods of increasing the expression yield of vitamin K-dependent proteins” (CSL Limited, priority 2009, dated 2015).

System: CHO cell line expressing recombinant Factor IX fusion protein with human albumin

Substance: Reduced Menadione Sodium Bisulphite [rMSB]
- toxic effect on the cells, overall comparison (at the concentrations used): much less toxic effect on the cells than addition of MSB
- toxicity observed (cell growth) (nominal 2160 ug/10^6 cells/day, did not result in cell death): reduced cell growth
- cell growth (nominal 240 and 720 ug/10^6 cells/day): comparable to the control
